# Data published in patent US4461900A, “4,5-Dihydrothiadiazole 1,1-dioxide derivatives” (American Home Products Corporation, priority 1983, dated 1984).
# Protein sequences, listed by entry. Tags and fused reporters are not part of them.
# UniProt P47747, whole entry: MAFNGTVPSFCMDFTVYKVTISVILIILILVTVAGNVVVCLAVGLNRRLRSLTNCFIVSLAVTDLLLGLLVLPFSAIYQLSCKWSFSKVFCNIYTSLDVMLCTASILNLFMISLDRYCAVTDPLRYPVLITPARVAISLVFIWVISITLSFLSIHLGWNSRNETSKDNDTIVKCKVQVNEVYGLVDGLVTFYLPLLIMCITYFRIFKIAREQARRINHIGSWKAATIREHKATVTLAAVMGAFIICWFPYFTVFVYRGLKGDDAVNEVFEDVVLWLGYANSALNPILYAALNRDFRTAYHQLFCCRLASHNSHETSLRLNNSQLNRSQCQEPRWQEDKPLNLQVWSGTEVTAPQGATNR
# Target: T1, H2 -receptor (Cavia porcellus, UniProt P47747)
# T1 construct: The right atria of Males Charles River guinea-pigs; from tissue; host or cells: isolated right atria of male Charles River guinea-pigs
# Experiment: In vitro H2 antagonism: histamine-induced heart rate increase in isolated guinea-pig right atria
# Type: cell-based
# Details: histamine dose-response, 30 min after antagonist, 32° C.
structure (smiles),measurement,value
"CNC(=NC#N)NCCSCc1[nH]cnc1C [Cimetidine, cimetidine]","pA2 (95% interval), apparent dissociation constant",6.40 (6.62-6.17)
